Experimental data: publication PMC3322284 (Journal of Pharmacological and Toxicological Methods, 2012)

Sequences of proteins named here, by UniProt entry; tags and fusion partners are left off.
UniProt P08183, whole entry: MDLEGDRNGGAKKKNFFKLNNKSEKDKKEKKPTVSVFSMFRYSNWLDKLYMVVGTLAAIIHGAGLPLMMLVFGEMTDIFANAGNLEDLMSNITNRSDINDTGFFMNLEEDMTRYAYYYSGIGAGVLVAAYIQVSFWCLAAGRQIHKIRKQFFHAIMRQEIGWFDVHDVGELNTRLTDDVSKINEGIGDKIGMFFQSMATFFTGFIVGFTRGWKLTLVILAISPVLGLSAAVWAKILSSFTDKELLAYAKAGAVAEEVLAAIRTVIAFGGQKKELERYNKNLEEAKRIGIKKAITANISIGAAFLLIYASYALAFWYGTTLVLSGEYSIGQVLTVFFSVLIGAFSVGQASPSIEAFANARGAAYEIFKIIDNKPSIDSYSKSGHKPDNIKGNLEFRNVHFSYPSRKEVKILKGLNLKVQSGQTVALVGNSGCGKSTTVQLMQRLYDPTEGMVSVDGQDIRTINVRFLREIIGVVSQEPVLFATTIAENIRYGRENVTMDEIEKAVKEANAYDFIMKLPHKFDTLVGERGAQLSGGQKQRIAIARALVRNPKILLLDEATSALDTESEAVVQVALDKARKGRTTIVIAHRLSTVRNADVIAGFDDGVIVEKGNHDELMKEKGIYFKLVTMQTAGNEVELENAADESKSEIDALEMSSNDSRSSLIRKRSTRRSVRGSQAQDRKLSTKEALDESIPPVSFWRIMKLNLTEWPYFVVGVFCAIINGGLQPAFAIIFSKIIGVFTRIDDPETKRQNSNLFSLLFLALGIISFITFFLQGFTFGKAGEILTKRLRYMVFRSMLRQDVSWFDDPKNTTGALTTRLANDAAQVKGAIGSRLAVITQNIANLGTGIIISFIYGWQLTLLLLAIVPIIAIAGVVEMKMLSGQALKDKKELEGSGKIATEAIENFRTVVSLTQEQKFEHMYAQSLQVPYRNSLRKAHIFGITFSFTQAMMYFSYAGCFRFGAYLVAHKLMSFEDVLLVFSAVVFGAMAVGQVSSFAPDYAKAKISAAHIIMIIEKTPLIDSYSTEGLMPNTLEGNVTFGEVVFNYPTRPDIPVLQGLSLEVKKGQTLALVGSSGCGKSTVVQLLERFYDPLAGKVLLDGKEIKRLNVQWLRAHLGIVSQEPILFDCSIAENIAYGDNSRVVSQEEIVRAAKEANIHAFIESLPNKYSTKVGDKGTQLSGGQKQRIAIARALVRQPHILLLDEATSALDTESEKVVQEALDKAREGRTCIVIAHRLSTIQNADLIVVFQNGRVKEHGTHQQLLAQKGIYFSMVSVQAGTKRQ
UniProt P21448, whole entry: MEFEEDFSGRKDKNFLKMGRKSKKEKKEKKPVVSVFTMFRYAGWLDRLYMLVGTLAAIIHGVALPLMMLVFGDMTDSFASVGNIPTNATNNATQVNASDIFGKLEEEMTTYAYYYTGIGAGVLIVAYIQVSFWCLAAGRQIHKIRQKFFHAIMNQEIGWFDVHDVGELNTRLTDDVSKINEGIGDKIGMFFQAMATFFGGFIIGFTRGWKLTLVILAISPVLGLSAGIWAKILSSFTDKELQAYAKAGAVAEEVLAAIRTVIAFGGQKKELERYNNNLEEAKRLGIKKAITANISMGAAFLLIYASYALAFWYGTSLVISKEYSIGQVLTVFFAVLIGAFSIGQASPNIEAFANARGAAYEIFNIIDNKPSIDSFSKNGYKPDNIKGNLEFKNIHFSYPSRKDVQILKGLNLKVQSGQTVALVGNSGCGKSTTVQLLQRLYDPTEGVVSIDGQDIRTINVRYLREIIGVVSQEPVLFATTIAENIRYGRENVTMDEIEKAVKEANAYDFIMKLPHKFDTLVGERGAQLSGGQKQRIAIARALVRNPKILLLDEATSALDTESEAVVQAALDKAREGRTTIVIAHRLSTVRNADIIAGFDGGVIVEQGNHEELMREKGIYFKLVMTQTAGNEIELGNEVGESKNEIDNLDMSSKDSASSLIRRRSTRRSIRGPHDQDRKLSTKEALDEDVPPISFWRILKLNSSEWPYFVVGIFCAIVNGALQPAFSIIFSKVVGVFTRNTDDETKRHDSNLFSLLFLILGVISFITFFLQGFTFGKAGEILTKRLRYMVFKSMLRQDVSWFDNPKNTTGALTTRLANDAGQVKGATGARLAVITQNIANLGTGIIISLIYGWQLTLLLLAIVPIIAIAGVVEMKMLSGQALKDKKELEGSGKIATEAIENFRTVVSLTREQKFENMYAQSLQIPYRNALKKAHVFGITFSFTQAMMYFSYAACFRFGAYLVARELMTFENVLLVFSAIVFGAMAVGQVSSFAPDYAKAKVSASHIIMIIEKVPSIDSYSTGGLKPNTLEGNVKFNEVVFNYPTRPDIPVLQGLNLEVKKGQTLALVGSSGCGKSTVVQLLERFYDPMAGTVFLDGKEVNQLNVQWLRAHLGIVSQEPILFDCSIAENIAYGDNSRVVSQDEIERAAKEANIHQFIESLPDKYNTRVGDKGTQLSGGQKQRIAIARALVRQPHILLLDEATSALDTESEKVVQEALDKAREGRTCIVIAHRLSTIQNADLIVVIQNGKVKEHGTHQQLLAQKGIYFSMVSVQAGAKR

Columns and labels:
human MDR1 Pgp = human MDR1 Pgp (Homo sapiens, UniProt P08183); assay: Inhibition of net [3H]digoxin transport in LLC-MDR1 cell monolayers; format: cell-based
hamster Abcb1a Pgp = hamster Abcb1a Pgp (Cricetulus griseus, UniProt P21448); assay: Fluorosome-trans-pgp

IC50 (human MDR1 Pgp) [µM] | SMILES | IC50 (hamster Abcb1a Pgp) [µM]
11 | COC(=O)C1=C(C)NC(C)=C(C(=O)OCCN(C)Cc2ccccc2)C1c1cccc([N+](=O)[O-])c1 (centres unmarked) [Nicardipine] | 
 | COc1cc2c(c(OC)c1OC)-c1ccc(OC)c(=O)cc1[C@@H](NC(C)=O)CC2 [Colchicine] | 230
